{"sequences": {"note": "Protein sequences, listed by entry. Tags and fused reporters are not part of them. Residues count along the entry.", "UniProt P01116, 1-185 isoform P01116-2 G12V": "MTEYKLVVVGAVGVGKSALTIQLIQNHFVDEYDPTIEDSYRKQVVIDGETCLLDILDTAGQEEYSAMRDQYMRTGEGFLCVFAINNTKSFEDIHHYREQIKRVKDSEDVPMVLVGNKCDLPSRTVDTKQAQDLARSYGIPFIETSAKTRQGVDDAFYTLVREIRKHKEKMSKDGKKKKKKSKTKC"}, "source": "patent US20170112896A1", "about": "“SMALL MOLECULE RAC OR RHO INHIBITORS” (Ohio State Innovation Foundation, priority 2014, published 2017)", "molecular_target": "T1, Ras(G12V)-Raf RBD interaction (Homo sapiens, UniProt P01116, G12V)", "T1 construct": "The G12V mutant K-Ras (amino acids 1-185) was recombinantly fused to glutathione 5-transferase (GST) at its N-terminus; GST (N, cleaved yes); made in house; host or cells: Escherichia coli BL21", "test": "HTRF assay, inhibition of Ras-Raf RBD interaction", "type": "binding", "conditions": "unlabeled peptide"}
{"smiles": "CCCC[C@H]1NC(=O)[C@H](Cc2ccc(F)cc2)NC(=O)[C@H](CCCNC(=N)N)NC(=O)[C@@H](Cc2ccc3ccccc3c2)NC(=O)[C@H](CCCNC(=N)N)NC(=O)[C@H](CCCNC(=N)N)NC(=O)[C@H](CCCNC(=N)N)NC(=O)[C@@H](C)NC(=O)[C@H]([C@@H](C)O)NC(=O)[C@H](Cc2cn(Cc3ccccc3)cn2)NC(=O)[C@H](CCC(N)=O)NC1=O", "note": "[Cyclorasin 9A7]", "values": [{"measurement": "IC50", "result": "440 ± 160", "unit": "nM"}]}
